Assay results from PubChem BioAssay AID588475 (Sanford-Burnham Center for Chemical Genomics, 2011).
The entries are a selection whose mix differs from that of the whole data set. The source made the active and inactive calls.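 The calls were made as follows: active = inhibition of the ligand-induced calcium signal above about 50% at the single tested concentration (limit read from the data); inactive = the rest.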

assay: blockers of CRF-evoked CRF-R2/CRF-BP calcium response – cell-based, HEK293, calcium dye fluorescence, uHTS, primary screen (AID 588475); details: CRF-induced calcium fluorescence, at 11.8 µM, hits give high values

| SMILES | inhibition |
| --- | --- |
| Cc1ccc(NP(=O)(Oc2ccccc2F)Oc2ccccc2F)nc1 | inactive: -18% |
| CN(C(=O)Cc1ccc(Cl)c(Cl)c1)[C@H]1CCCC[C@@H]1N1CCCC1 | inactive: 4.3% |
| CCOP(=O)(Nc1ccccc1)OCC | inactive: 1.13% |
| Cc1cc(SC(NC(=O)c2ccc(F)cc2)C(Cl)(Cl)Cl)ncn1 (stereo not given) | inactive: -7.23% |
| CCCC1OP(N)(=O)OCC1CC (stereo not given) | inactive: -5.22% |
| O=C(O)c1ccccc1[As](=O)(O)O | inactive: 0.16% |
| CC(=O)Nc1ccc([As](=O)(O)O)cc1 | inactive: 0.56% |
| CN(C)P(=O)(N(C)C)n1c(Nc2ccccc2)nnc1-c1ccccc1 | inactive: -5.69% |
| O=P(Nc1nc2ccc(Cl)cc2s1)(c1ccccc1)c1ccccc1 | inactive: 7.44% |
| CCN(N=Nc1nonc1N)c1nonc1N | inactive: 6.05% |
| Nc1cccc2ccc([As](=O)(O)O)cc12 | inactive: -2.54% |
| Cc1ccc(OP(=O)(Nc2nccs2)Oc2ccc(C)cc2)cc1 | inactive: 1.21% |
| COc1ccccc1OP(=O)(Nc1ccc(C)cn1)Oc1ccccc1OC | inactive: -12.2% |
| Clc1ccc(Cl)c(NC2=NCC(CBr)S2)c1 (stereo not given) | inactive: 17.2% |
| CN1CCCC(OC(=O)C(c2ccccc2)c2ccccc2)C1 (stereo not given) | inactive: 3.02% |
| NC(=O)c1cc([N+](=O)[O-])cc([N+](=O)[O-])c1N | inactive: 21.6% |
| Cc1ccc(N/C(=N/P(=O)(N2CCOCC2)N2CCOCC2)N2CCOCC2)cc1 | inactive: -0.15% |
| CN(C(=O)Cc1ccc(Cl)c(Cl)c1)[C@H]1CCCC[C@H]1N1CCCC1 | inactive: -9.51% |
| CC(C)CC(=O)NC(Sc1ccc(Cl)cc1)C(Cl)(Cl)Cl (stereo not given) | inactive: 15.3% |
| Nc1cc(N)c2nonc2c1[N+](=O)[O-] | inactive: -7.87% |
| O=C(NC(Sc1ccncn1)C(Cl)(Cl)Cl)c1ccccc1 (stereo not given) | inactive: 6.51% |
| Oc1ccccc1CNc1ccccn1 | inactive: -0.7% |
| O=[N+]([O-])c1cccc2n[nH]nc12 | inactive: 27.4% |
| CC(=O)N1C2C3N(C(C)=O)C1C1N(C(C)=O)C(C(N1C(C)=O)N3C(C)=O)N2C(C)=O | inactive: -5.38% |
| CCc1nc2c(n1)c1c(non1O)c1c2no[n+]1[O-] | inactive: -17.4% |

| SMILES | inhibition |
| --- | --- |
| O=[N+]([O-])c1cc([N+](=O)[O-])c(CCNc2ccccc2)c([N+](=O)[O-])c1 | inactive: 4.76% |
| Cc1ccc(NP(=O)(Oc2ccccc2)Oc2ccccc2)nc1 | inactive: -16.4% |
| COc1ccc(C2=NCC(CBr)S2)cc1 (stereo not given) | inactive: -2.64% |
| CN(C)C(=O)OCCc1n(C)cc[n+]1C | inactive: -4.3% |
| CC(C)=N/N=C(\N)N[N+](=O)[O-] | inactive: -2.61% |
| CC(C)c1nc(Nc2ccccc2)n(P(=O)(N(C)C)N(C)C)n1 | inactive: -1.07% |
| c1cc(-c2nn[nH]n2)ccc1-c1nn[nH]n1 | inactive: 19.5% |
| CC1CCN(C(=O)Oc2c(Cl)cc(Cl)c3cccnc23)CC1 | inactive: -3.01% |
| C[N+]1=C2C=CC=CC=C2SC12C([N+](=O)[O-])=CC([N+](=O)[O-])=C[C-]2[N+](=O)[O-] (stereo not given) | inactive: -5.42% |
| Nc1ccc([As](=O)(O)c2ccc(N)cc2)cc1 | inactive: 10.1% |
| CCN(/C(=N/P(=O)(N1CCOCC1)N1CCOCC1)N1CCOCC1)c1ccc(OC)cc1 | inactive: 4.93% |
| O=C(Nc1cc([As](=O)(O)O)ccc1O)c1ccccc1 | inactive: -18.6% |
| O=P1(N(CCCl)CCCl)OCCCS1 (stereo not given) | inactive: 6.91% |
| O=[N+]([O-])c1cccc(NC2=NCC(CBr)S2)c1 (stereo not given) | inactive: 43.9% |
| COC(=O)C1(C)COP(=O)(Nc2ccccc2)OC1 (stereo not given) | inactive: 41.6% |
| O=C(O)CNc1ccc([As](=O)(O)O)cc1 | inactive: 9.59% |
| CC(C)(C)C(=O)NC(Sc1ccncn1)C(Cl)(Cl)Cl (stereo not given) | inactive: 20% |
| O=[N+]([O-])c1ncn(CCn2ncnc2[N+](=O)[O-])n1 | inactive: -2.03% |
| C[C@H]1OP(=O)(Oc2ccccc2)[C@H](O)[C@H](O)[C@H]1N=[N+]=[N-] (stereo not given in full) | inactive: -4.35% |
| O=P(Nc1nc2ccccc2s1)(c1ccccc1)c1ccccc1 | inactive: 2.15% |
| COc1ccc(N)c([N+](=O)[O-])c1[N+](=O)[O-] | inactive: 5.51% |
| O=P(Nc1ccccn1)(c1ccc(Br)cc1)c1ccc(Br)cc1 | inactive: -27% |
| CN(C)C1(CNC(=O)c2ccc(Cl)c(S(N)(=O)=O)c2)CCCCC1 | inactive: -10.6% |
| Nc1ccc([As](=O)(O)c2ccc([N+](=O)[O-])cc2)cc1 | inactive: 15.5% |
| C(Cc1nn[nH]n1)Cc1nn[nH]n1 | inactive: 20.5% |

| SMILES | inhibition |
| --- | --- |
| O=C(OC1CN2CCC1CC2)c1cccc(Cl)c1 (stereo not given) | inactive: -6.85% |
| O=[N+]([O-])c1ccc(O)c(/C=N/Nc2ccc([N+](=O)[O-])cc2[N+](=O)[O-])c1 | active: 52.8% |
| O=[N+]([O-])c1ncn(CCn2cnc([N+](=O)[O-])n2)n1 | inactive: 5.94% |
| CC(=O)NC(SC(=S)N(C)C)C(Cl)(Cl)Cl (stereo not given) | inactive: -21.4% |
| O=[As](O)(c1ccccc1)c1ccc(O)cc1 | inactive: 12.4% |
| c1nnnn1CCn1cnnn1 | inactive: -12% |
| CC(C)C(=O)NC(Sc1ccccc1)C(Cl)(Cl)Cl (stereo not given) | inactive: -4.36% |
| O=P(Nc1nccs1)(c1ccccc1)c1ccccc1 | inactive: -10.1% |
| CCc1cc(O)c([N+](=O)[O-])c(C)c1[N+](=O)[O-] | inactive: 18.5% |
| CC(C)(C)C(=O)NC(Sc1ccccc1)C(Cl)(Cl)Cl (stereo not given) | inactive: -2.99% |
| CCOc1ccc(C2=NCC(CBr)S2)cc1 (stereo not given) | inactive: 6.25% |
| O=P1(Nc2nc3ccc(Cl)cc3s2)COc2ccccc2O1 (stereo not given) | inactive: 8.38% |
| CC(=O)Nc1ccc(Oc2c([N+](=O)[O-])cc([N+](=O)[O-])cc2[N+](=O)[O-])cc1 | inactive: 27.4% |
| CC(=O)Nc1ccc([As](=O)(O)O)c(O)c1 | inactive: -1.14% |
| COC(=O)C1(C)COP(=O)(NCc2ccccc2)OC1 (stereo not given) | inactive: 31.1% |
| N#C/C(=C\c1ccc(N(CCBr)CCBr)cc1)C(N)=O | inactive: -5.47% |
| CC(=O)c1ccc(N2CC2c2ccncc2)cc1 (stereo not given) | inactive: 7.13% |
| C[C@@H]1C=CCP(=O)(Oc2ccccc2)O1 (stereo not given in full) | inactive: 14.1% |
| C[C@H]1OP(=O)(Oc2ccccc2)C[C@@H]2O[C@@H]21 (stereo not given in full) | inactive: -3% |
| Cc1ccccc1CN(C)C(=O)COC(=O)C(O)(c1ccccc1)c1ccccc1 | inactive: -26.3% |
| O=P1(N(CCCl)CCCl)OCCC2CCCCN21 (stereo not given) | inactive: -18.6% |
| CCNC(=S)/N=C(\N)N[N+](=O)[O-] | inactive: 19.9% |
| O=C(NC1CCS(=O)(=O)C1)NP(=S)(Oc1ccccc1)Oc1ccccc1 (stereo not given) | inactive: 1.47% |
| Cc1ccc(NP(=O)(Oc2cccc(C)c2)Oc2cccc(C)c2)nc1 | inactive: -3.79% |
| c1ccc(-c2nn[nH]n2)c(-c2nn[nH]n2)c1 | inactive: -0.92% |

| SMILES | inhibition |
| --- | --- |
| CN(C)C(=O)Oc1noc2ccccc12 | inactive: -5.25% |
| O=c1c2cc([N+](=O)[O-])ccc2[nH]c2c([N+](=O)[O-])cc([N+](=O)[O-])cc12 | active: 118% |
| Cc1ccccc1OP(=O)(Nc1ccccn1)Oc1ccccc1C | inactive: -33.2% |
| CC(NC(=O)COC(=O)C(O)(c1ccccc1)c1ccccc1)c1ccccc1 (stereo not given) | inactive: 16.5% |
| Cc1ccc(OP(=O)(Nc2ccccn2)Oc2ccc(C)cc2)cc1 | inactive: -35.7% |
| CC(=O)NC(SC(=S)N(CC(C)C)CC(C)C)C(Cl)(Cl)Cl (stereo not given) | inactive: 11.5% |
| COC(=O)c1cc2c(s1)N=C(c1ccccc1)N(C)P2(=O)N1CCOCC1 (stereo not given) | inactive: -18.4% |
| CCC(=O)N1C2C3N(C(=O)CC)C1C1N(C(=O)CC)C(C(N1C(=O)CC)N3C(=O)CC)N2C(=O)CC | inactive: 7.12% |
| O=C(OC1CN2CCC1CC2)c1ccccc1 (stereo not given) | inactive: 0.71% |
| Nc1ccccc1[As](=O)(O)c1ccccc1 | inactive: 2.57% |
| O=C(O)COc1ccc([As](=O)(O)O)cc1[N+](=O)[O-] | inactive: -16.3% |
| CS(=O)(=O)c1cc([N+](=O)[O-])c2no[n+]([O-])c2c1 | inactive: -9.54% |
| O=P(Nc1nccs1)(c1ccccc1)c1nc2ccccc2s1 (stereo not given) | inactive: 5.94% |
| O=P(Nc1nccs1)(Oc1ccccc1)Oc1ccccc1 | inactive: -10.3% |
| CCOP1(=S)c2c(C)nn(CCC#N)c2N=C(c2ccccc2F)N1C (stereo not given) | inactive: -5.57% |
| CN(C(=O)Cc1ccc(Cl)c(Cl)c1)[C@H]1CC[C@@]2(CCCO2)C[C@@H]1N1CCCC1 | inactive: 4.8% |
| CN(C)C(=O)c1cc([N+](=O)[O-])cc2c1-c1c(cc([N+](=O)[O-])cc1[N+](=O)[O-])C2=O | inactive: 24.3% |
| O=[N+]([O-])c1ccc2c(c1)nnn2O | inactive: 0.62% |
| CN(C(=O)Cc1ccccc1)[C@@H]1CC[C@]2(CCCO2)C[C@H]1N1CCCC1 | inactive: -64.2% |
| CCOP1(=S)c2c(C)nn(CCC#N)c2N=C(c2ccc(F)cc2)N1C (stereo not given) | inactive: 2.61% |
| N#CCCN(C(=O)COC(=O)C(O)(c1ccccc1)c1ccccc1)c1ccc(F)cc1 | inactive: 4.24% |
| NC(=O)Nc1ccc([As](=O)(O)O)cc1 | inactive: 3.82% |
| O=[As](O)(c1cccc(O)c1)c1cccc(O)c1 | inactive: 5.63% |
| Cc1cccc(OCC(=O)OC2CN3CCC2CC3)c1 (stereo not given) | inactive: 8.88% |
| CS(=O)(=O)c1ccc(Cl)c(NC(=O)COC(=O)C(O)(c2ccccc2)c2ccccc2)c1 | inactive: 23.3% |
